Reference: ChEMBL document CHEMBL1124669, “Quaternary salts of 2-[(hydroxyimino)methyl]imidazole. 2. Preparation and in vitro and in vivo evaluation of 1-(alkoxymethyl)-2-[(hydroxyimino)methyl]-3-methylimida zolium halides for reactivation of organophosphorus-inhibited acetylcholinesterases” (1989)

Columns and labels:
Mus musculus [1] = organism: Mus musculus; experiment: Tested in mouse for significant protection against the lethal effects of 2xLD50 of soman without atropine.
Mus musculus [2] = experiment: Protective index was expressed as LD50 with oxime/LD50 without oxime
Mus musculus [3] = organism: Mus musculus; experiment: Compound was tested in mouse for significant protection against the lethal effects of 2xLD50 of soman without atropine

| SMILES | LD50 (Mus musculus [1]) [µmol/kg] | PI (Mus musculus [2]) | LD50 (Mus musculus [3]) [µmol/kg] |
| --- | --- | --- | --- |
| Cn1cc[n+](COCc2ccccc2)c1/C=N/O.[Cl-] | 646 |  |  |
| CC(OC[n+]1ccn(C)c1/C=N/O)C(C)(C)C.[Cl-] (stereo not given) | 492 |  |  |
| Cn1cc[n+](COC2CCCCCC2)c1/C=N/O.[Cl-] | 193 |  |  |
| CCCCCCCCOC[n+]1ccn(C)c1/C=N/O.[Cl-] | 94 |  |  |
| CC(OC[n+]1ccn(C)c1/C=N/O)C1CCCCC1.[Cl-] (stereo not given) | 521 |  |  |
| CCC(C)C(C)OC[n+]1ccn(C)c1/C=N/O.[Cl-] (stereo not given) | 167 |  |  |
| Cn1cc[n+](COCCCc2ccccc2)c1/C=N/O.[Cl-] | 585 | 0 |  |
| CC(C)OC[n+]1ccn(C)c1/C=N/O.[Cl-] | 417 |  |  |
| CC(CC(C)(C)C)OC[n+]1ccn(C)c1/C=N/O.[Cl-] (stereo not given) | 205 |  |  |
| Cn1cc[n+](COCC2CCCCC2)c1/C=N/O.[Cl-] | 391 |  |  |
| Cn1cc[n+](COC2CCCC2)c1/C=N/O.[Cl-] | 712 |  |  |
| Cn1cc[n+](COC(=O)C(C)(C)C)c1/C=N/O.[Cl-] | 372 |  |  |
| CCCCCCOC[n+]1ccn(C)c1/C=N/O.[Cl-] | 288 |  |  |
| Cn1cc[n+](COC[n+]2ccn(C)c2/C=N/O)c1/C=N/O | 255 |  |  |
| CCC(C)C(=O)OC[n+]1ccn(C)c1/C=N/O.[Cl-] (stereo not given) | 333 |  |  |
| Cn1cc[n+](COC2CCC2)c1/C=N/O.[Cl-] | 495 |  |  |
| CCCC(C)OC[n+]1ccn(C)c1/C=N/O.[Cl-] (stereo not given) | 651 |  |  |
| Cn1cc[n+](COCc2cccc3ccccc23)c1/C=N/O.[Cl-] | 43 |  |  |
| CCCC(CC)OC[n+]1ccn(C)c1/C=N/O.[Cl-] (stereo not given) | 321 |  |  |

| SMILES | LD50 (Mus musculus [1]) [µmol/kg] | PI (Mus musculus [2]) | LD50 (Mus musculus [3]) [µmol/kg] |
| --- | --- | --- | --- |
| Cn1cc[n+](COC[n+]2ccccc2/C=N/O)c1/C=N/O.[Cl-].[Cl-] | 342 |  |  |
| CCCC(=O)OC[n+]1ccn(C)c1/C=N/O.[Cl-] | 511 |  |  |
| COC[n+]1ccn(C)c1/C=N/O.[Cl-] | 620 | 3 |  |
| Cn1cc[n+](COC2CCCCCCCCCCC2)c1/C=N/O.[Cl-] | 161 |  |  |
| CCC(OC[n+]1ccn(C)c1/C=N/O)C(C)(C)C.[Cl-] (stereo not given) | 222 |  |  |
| Cn1cc[n+](CCC[n+]2ccn(C)c2/C=N/O)c1/C=N/O | 124 |  |  |
| Cn1cc[n+](COC2CCCCCCC2)c1/C=N/O.[Cl-] | 631 |  |  |
| Cn1cc[n+](COC(=O)c2ccc3ccccc3c2)c1/C=N/O.[Cl-] | 177 |  |  |
| Cn1cc[n+](COCC(C)(C)C)c1/C=N/O.[Cl-] | 219 |  |  |
| C[n+]1ccccc1/C=N/O.[Cl-] |  | 2.5 |  |
| CCOC[n+]1ccn(C)c1/C=N/O.[Cl-] | 612 |  |  |
| Cn1c(/C=N/O)[n+](C)c2ccccc21.[Cl-] | 1400 |  |  |
| O/N=C\c1cccc[n+]1COCCOC[n+]1ccccc1/C=N/O.[Cl-].[Cl-] | 278 |  |  |
| Cn1cc[n+](COC2CCCCC2)c1/C=N/O.[Cl-] | 261 |  |  |
| Cn1cc[n+](COCC2CCCc3ccccc32)c1/C=N/O.[Cl-] (stereo not given) | 199 |  |  |
| CCCCOC[n+]1ccn(C)c1/C=N/O.[Cl-] |  |  | 705 |
| CCCC(OC[n+]1ccn(C)c1/C=N/O)C1CCCC1.[Cl-] (stereo not given) | 184 |  |  |
| Cn1cc[n+](CCCC[n+]2ccn(C)c2/C=N/O)c1/C=N/O | 372 |  |  |
| Cn1cc[n+](COCC2CC2)c1/C=N/O.[Cl-] | 621 |  |  |
